Results from US6881740B1, “Pharmaceutical agents” (Monash University, priority 1998, dated 2005).

Sequences of proteins named here, by UniProt entry; tags and fusion partners are left off. Residues count along the entry.
UniProt Q00960, 27-1482 limits assumed: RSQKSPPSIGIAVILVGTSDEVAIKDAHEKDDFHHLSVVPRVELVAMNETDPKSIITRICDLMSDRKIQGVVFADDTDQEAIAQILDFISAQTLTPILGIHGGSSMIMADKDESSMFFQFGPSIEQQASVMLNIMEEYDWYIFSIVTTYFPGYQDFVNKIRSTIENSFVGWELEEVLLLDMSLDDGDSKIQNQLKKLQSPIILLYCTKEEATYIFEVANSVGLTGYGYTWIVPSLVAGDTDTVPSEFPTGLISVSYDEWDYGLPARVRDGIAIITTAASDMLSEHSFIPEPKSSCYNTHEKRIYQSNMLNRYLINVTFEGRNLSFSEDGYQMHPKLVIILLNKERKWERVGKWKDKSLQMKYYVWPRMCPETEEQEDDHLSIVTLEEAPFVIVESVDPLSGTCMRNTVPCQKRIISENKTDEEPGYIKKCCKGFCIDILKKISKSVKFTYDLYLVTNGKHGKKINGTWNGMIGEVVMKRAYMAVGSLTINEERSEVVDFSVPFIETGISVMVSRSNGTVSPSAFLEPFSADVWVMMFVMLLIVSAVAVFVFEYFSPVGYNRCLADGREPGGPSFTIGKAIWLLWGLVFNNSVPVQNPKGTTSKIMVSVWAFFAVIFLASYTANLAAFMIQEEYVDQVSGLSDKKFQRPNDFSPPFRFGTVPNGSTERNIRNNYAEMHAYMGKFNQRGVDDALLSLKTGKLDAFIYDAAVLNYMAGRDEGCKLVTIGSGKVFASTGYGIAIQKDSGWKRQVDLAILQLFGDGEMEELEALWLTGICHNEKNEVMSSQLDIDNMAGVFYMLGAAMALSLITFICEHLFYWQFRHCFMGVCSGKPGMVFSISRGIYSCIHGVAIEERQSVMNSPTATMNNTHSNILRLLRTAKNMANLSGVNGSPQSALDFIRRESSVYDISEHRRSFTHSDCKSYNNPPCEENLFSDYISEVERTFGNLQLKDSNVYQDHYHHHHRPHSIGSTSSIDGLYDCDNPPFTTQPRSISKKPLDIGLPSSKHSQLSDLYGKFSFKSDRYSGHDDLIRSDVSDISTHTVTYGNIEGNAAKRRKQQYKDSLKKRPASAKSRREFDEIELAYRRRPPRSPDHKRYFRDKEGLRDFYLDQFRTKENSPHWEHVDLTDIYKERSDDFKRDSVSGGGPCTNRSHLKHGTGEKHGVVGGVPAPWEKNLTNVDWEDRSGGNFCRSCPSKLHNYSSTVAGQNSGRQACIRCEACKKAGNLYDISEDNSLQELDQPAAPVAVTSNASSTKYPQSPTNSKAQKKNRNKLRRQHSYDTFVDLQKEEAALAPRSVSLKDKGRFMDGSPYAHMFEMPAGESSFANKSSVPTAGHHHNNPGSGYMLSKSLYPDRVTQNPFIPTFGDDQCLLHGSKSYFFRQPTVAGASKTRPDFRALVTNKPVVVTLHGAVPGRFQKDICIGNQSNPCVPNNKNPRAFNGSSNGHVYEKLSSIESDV

Tests used:
[1] = target: NMDA/polyamine sites (polyamine-sensitive [3H]-ifenprodil binding, rat cerebral cortex membranes) (Rattus norvegicus, UniProt P35439+Q00960); test: NMDA/polyamine site [3H]-ifenprodil binding assay; conditions: [3H]-ifenprodil 4 nM, rat cerebral cortex homogenate, tested form: free base or hydrochloride (not specifie); for IC50: 2 h at 4° C., 3PPP 100 μM to block sigma sites; for Ki: competition curves analysed with Radlig
Text: Ifenprodil and eliprodil have been reported as antiischaemic agents (Gotti et al., 1988) and both compounds have been reported to associate with the polyamine sensitive site of the NMDA receptor complex (Carter et al., 1989 and 1990; Reynolds et al., 1989; and Robinson et al., 1990). […] These agents bind independently of the NMDA ion channel (Carter et al., 1991; Reynolds et al., 1989), appear not to cause behavioural effects (Carter et al., 1991), and may target specific heteromeric NMDA receptors (Williams, 1993; Nicola et al., 1994) uniquely distributed in forebrain regions (Standaert et al., 1994) affected in ischaemia and head trauma. […] Accordingly, compounds of the present invention are capable of binding to the NMDA receptor complex and providing a neuroprotective effect, or otherwise providing benefit in other conditions related to NMDA receptors.
Briefly, crude membrane suspensions containing 10% rat cerebral cortex were prepared in aqueous 50 mM Tris-HCl buffer (pH 7.4, 4° C.), using a Polytron homogeniser.
Assays contained 100 μl of cortex homogenate, [^3H]-ifenprodil (4 nM) and various concentrations of test drug. Nonspecific binding was determined using spermine (10 μM).
The sigma receptor ligand 3PPP(+)-3-(3-hydroxyphenyl)-N-propyl-piperidine (100 μM) was included in all tubes to block binding to sigma receptors. Incubation was for two hours at 4° C., ie., conditions favourable to NMDA/polyamine receptor binding. Assays were terminated with ice-cold buffer by rapid vacuum filtration using a Brandel Cell Harvester, through GF/B filter paper, presoaked in 0.025% polyethylimine. Filterpapers were collected, combined with scintillant and bound radioactivity determined using a Packard Scintillation counter.
Competition curves obtained for drugs active in each assay were analysed using the computer binding analysis program Radlig, using Kd=5.72 nM and 2.78 nM for polyamine/NMDA assays respectively.

[2] = system: cultured cerebellar granule cells; test: Veratridine induced toxicity in neuronal cultures (MTT assay); conditions: veratridine 100 μM, 60 minute exposure; 30 minutes pre-incubation with drug; viability at 18 hours by MTT; tested form: free base or hydrochloride (not specifie)
[3] = system: voltage-sensitive sodium channels (rat brain homogenates); conditions: approximate IC50 from dose response curves, 30 minutes at 37° C., scorpion toxin present, tested form: free base or hydrochloride (not specifie)
Text: Compounds that modulate voltage-sensitive sodium channels may be useful in a number of therapeutic indications including disorders related to neurological damage of the peripheral and/or the central nervous system. Affinity for voltage-sensitive sodium channels may be determined by measuring the displacement of labelled ligands from their binding sites on the sodium channel, for example the procedure of Catterall et al. (1981) uses [^3H]-batrachotoxinin A 20-α-benzoate. Compounds of the present invention show an affinity for voltage-sensitive sodium channels in this type of assay.
Sodium Channel Binding Assay
The general procedure of Catterall et al. (1981) was used with minor modifications. […] Bound radioactivity is assessed using a scintillation counter. From dose response curves approximate IC50 values for the test compounds were determined.

Cc1ccccc1C(O)Cc1cc(N2CCCC2)nc(N2CCCC2)n1 (stereo not drawn)
IC50 [1]: 4050 nM
Ki [1]: 1320 nM

OC(Cc1cc(N2CCCC2)nc(N2CCCC2)n1)c1ccc(Cl)cc1 (stereo not drawn)
EC50 [2]: 4000 nM
IC50 [3]: 770 nM
IC50 [1]: 400 nM
Ki [1]: 156 nM
